The entries are a selection whose mix differs from that of the whole data set. Some structures show a salt or complex split into parts, the way the source records it. Active and inactive are the calls of the source.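 How the source made its calls: active means B-score, a plate-corrected calcium signal, over three deviations above library mean, with baseline fluorescence within five deviations of library mean; inactive means the rest.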
Molecular target: Regulator of G-protein signaling 4 (Homo sapiens) (UniProt P49798)
Assay: RGS4 inhibitors, primary screen, cell-based, HEK293 M3R inducible RGS4, calcium flux (AID 463165);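 further: RGS4 expression induced by doxycycline in cells with stable M3 receptor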
Conditions: Fluo-4 calcium flux, at 10 µM, triggered by carbachol at its EC20

Protein sequences, listed by entry. Tags and fused reporters are not part of them.
UniProt P49798, whole entry: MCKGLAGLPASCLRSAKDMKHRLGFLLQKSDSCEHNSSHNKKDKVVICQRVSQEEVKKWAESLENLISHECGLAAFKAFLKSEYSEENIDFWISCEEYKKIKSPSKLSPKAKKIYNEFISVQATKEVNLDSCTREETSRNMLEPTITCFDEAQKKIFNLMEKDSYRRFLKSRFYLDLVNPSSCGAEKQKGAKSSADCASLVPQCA

Structure (SMILES)	outcome
Cc1ccc(OP(=O)(Nc2nccs2)Oc2ccc(C)cc2)cc1	inactive
COc1ccc(OP(C)(=O)Nc2ccccn2)cc1 (stereo not given)	inactive
COc1ccccc1OP(=O)(Nc1ccc(C)cn1)Oc1ccccc1OC	inactive
CN(C)CCOC(=O)C(O)(c1ccccc1)C1CCCC1 (stereo not given)	inactive
Clc1ccc(Cl)c(NC2=NCC(CBr)S2)c1 (stereo not given)	inactive
CN1CCCC(OC(=O)C(c2ccccc2)c2ccccc2)C1 (stereo not given)	inactive
NC(=O)c1cc([N+](=O)[O-])cc([N+](=O)[O-])c1N	inactive
Cc1ccc(N/C(=N/P(=O)(N2CCOCC2)N2CCOCC2)N2CCOCC2)cc1	inactive
COc1ccccc1OP(C)(=O)Nc1ccc(Br)cc1 (stereo not given)	inactive
COc1ccccc1OP(C)(=O)Nc1ccc(C)cc1C (stereo not given)	inactive
CP(=O)(Nc1ccccn1)Oc1ccccc1 (stereo not given)	inactive
CCc1ccc(OP(C)(=O)O)cc1	inactive
O=[N+]([O-])c1cc([N+](=O)[O-])c(Nc2ccccn2)c([N+](=O)[O-])c1	inactive
CC(C)CC(=O)NC(Sc1ccc(Cl)cc1)C(Cl)(Cl)Cl (stereo not given)	inactive
Nc1cc(N)c2nonc2c1[N+](=O)[O-]	inactive
Cc1c(NP(C)(=O)Oc2ccc(C(C)C)cc2)c(=O)n(-c2ccccc2)n1C (stereo not given)	inactive
Cc1c2non([O-])c-2c(C)[n+](=O)[n+]1[O-]	inactive
O=C(NC(Sc1ccncn1)C(Cl)(Cl)Cl)c1ccccc1 (stereo not given)	inactive
Oc1ccccc1CNc1ccccn1	inactive
CN(C(=O)Cc1ccc(Cl)c(Cl)c1)[C@H]1CCCC[C@@H]1N1CCCC1	inactive
Cc1ccc(NP(=O)(Oc2ccccc2F)Oc2ccccc2F)nc1	inactive
COc1ccccc1OP(C)(=O)Nc1ccc(C)c(C)c1 (stereo not given)	inactive
CCOP(=O)(Nc1ccccc1)OCC	inactive

Structure (SMILES)	outcome
Cc1cc(SC(NC(=O)c2ccc(F)cc2)C(Cl)(Cl)Cl)ncn1 (stereo not given)	inactive
COc1ccc(OP(C)(=O)Nc2ccccc2Br)cc1 (stereo not given)	inactive
O=C(O)c1ccccc1[As](=O)(O)O	inactive
CC(=O)Nc1ccc([As](=O)(O)O)cc1	inactive
Cc1cc(C)cc(OP(C)(=O)Nc2cccc(C(F)(F)F)c2)c1 (stereo not given)	inactive
O=P(Nc1nc2ccc(Cl)cc2s1)(c1ccccc1)c1ccccc1	inactive
CCN(N=Nc1nonc1N)c1nonc1N	inactive
CP(=O)(OCCOc1ccccc1)OCCOc1ccccc1	inactive
CP(=O)(Nc1ccc(Cl)cc1Cl)Oc1ccccc1 (stereo not given)	inactive
Nc1cccc2ccc([As](=O)(O)O)cc12	inactive
Cc1nc2ccc3ccccc3c2o1.O=[N+]([O-])c1cc([N+](=O)[O-])c(O)c([N+](=O)[O-])c1	inactive
O=[N+]([O-])c1cc([N+](=O)[O-])c(CCN2CCOCC2)c([N+](=O)[O-])c1	inactive
O=C(Nc1cc([As](=O)(O)O)ccc1O)c1ccccc1	inactive
CCOC(=O)c1ccc(NP(C)(=O)Oc2ccc(Cl)cc2)cc1 (stereo not given)	inactive
CP(=O)(OC12CC3CC(CC(C3)C1)C2)OC12CC3CC(CC(C3)C1)C2	inactive
Nc1ccc2c(ccc3cccnc32)n1.O=[N+]([O-])c1cc([N+](=O)[O-])c(O)c([N+](=O)[O-])c1	inactive
O=[N+]([O-])c1cccc(NC2=NCC(CBr)S2)c1 (stereo not given)	inactive
O=C(O)CNc1ccc([As](=O)(O)O)cc1	inactive
CC(C)(C)C(=O)NC(Sc1ccncn1)C(Cl)(Cl)Cl (stereo not given)	inactive
O=[N+]([O-])c1ncn(CCn2ncnc2[N+](=O)[O-])n1	inactive
O=C(OCCCN1CCCC1)C(O)(c1ccccc1)C1CCCCC1 (stereo not given)	inactive
COc1ccccc1OP(C)(=O)Nc1c(C)n(C)n(-c2ccccc2)c1=O (stereo not given)	inactive
CC(=O)N1C2C3N(C(C)=O)C1C1N(C(C)=O)C(C(N1C(C)=O)N3C(C)=O)N2C(C)=O	inactive

Structure (SMILES)	outcome
O=[N+]([O-])c1cccc2n[nH]nc12	inactive
O=[N+]([O-])c1cc([N+](=O)[O-])c(CCNc2ccccc2)c([N+](=O)[O-])c1	inactive
CCc1ccc(OP(C)(=O)Nc2cccnc2)cc1 (stereo not given)	inactive
Cc1ccc(NP(=O)(Oc2ccccc2)Oc2ccccc2)nc1	inactive
CP(=O)(Oc1ccccc1)N1CCOC1=O (stereo not given)	inactive
COc1ccc(C2=NCC(CBr)S2)cc1 (stereo not given)	inactive
COc1ccc(OP(C)(=O)Nc2ccc(Br)cc2)cc1 (stereo not given)	inactive
CCN(CC)CC(O)COC(=O)C(O)(c1ccccc1)C1CCCCC1 (stereo not given)	inactive
CN(C)C(=O)OCCc1n(C)cc[n+]1C	inactive
CC(C)=N/N=C(\N)N[N+](=O)[O-]	inactive
CN(C)C(=O)c1c([N+](=O)[O-])cc([N+](=O)[O-])cc1[N+](=O)[O-]	inactive
CC1CCN(C(=O)Oc2c(Cl)cc(Cl)c3cccnc23)CC1	inactive
C[N+]1=C2C=CC=CC=C2SC12C([N+](=O)[O-])=CC([N+](=O)[O-])=C[C-]2[N+](=O)[O-] (stereo not given)	inactive
Nc1ccc([As](=O)(O)c2ccc(N)cc2)cc1	inactive
CC(C)(C)c1ccc(OP(C)(=O)O)cc1	inactive
COc1ccccc1OP(C)(=O)Nc1ccccc1Br (stereo not given)	inactive
CP(=O)(Nc1ccc(Cl)cc1)Oc1ccc(F)cc1 (stereo not given)	inactive
CCN(/C(=N/P(=O)(N1CCOCC1)N1CCOCC1)N1CCOCC1)c1ccc(OC)cc1	inactive
CCOP(C)(=S)SCC(=O)NC(C)(CC)C(=O)O (stereo not given)	inactive
c1nnnn1CCn1cnnn1	inactive
CP(=O)(Nc1ccc(SC(F)(F)F)cc1)Oc1ccc(F)cc1 (stereo not given)	inactive
O=P(Nc1nccs1)(c1ccccc1)c1ccccc1	inactive
CC(C)C(=O)NC(Sc1ccccc1)C(Cl)(Cl)Cl (stereo not given)	inactive

Structure (SMILES)	outcome
CP(=O)(Nc1ccc2c(c1)OCCO2)Oc1ccccc1 (stereo not given)	inactive
C[C@H]1OP(=O)(Oc2ccccc2)[C@H](O)[C@H](O)[C@H]1N=[N+]=[N-] (stereo not given in full)	inactive
O=P(Nc1nc2ccccc2s1)(c1ccccc1)c1ccccc1	inactive
CN(C)CCOC(=O)C(O)(c1ccccc1)C1CCCCC1 (stereo not given)	inactive
COc1ccc(NP(C)(=O)Oc2ccccc2OC)cc1 (stereo not given)	inactive
COc1ccc(OP(C)(=O)Nc2cccc(Br)c2)cc1 (stereo not given)	inactive
CN(C)C1(CNC(=O)c2ccc(Cl)c(S(N)(=O)=O)c2)CCCCC1	inactive
O=P(Nc1ccccn1)(c1ccc(Br)cc1)c1ccc(Br)cc1	inactive
Nc1ccc([As](=O)(O)c2ccc([N+](=O)[O-])cc2)cc1	inactive
C(Cc1nn[nH]n1)Cc1nn[nH]n1	inactive
O=C(OC1CN2CCC1CC2)c1cccc(Cl)c1 (stereo not given)	inactive
O=[N+]([O-])c1ncn(CCn2cnc([N+](=O)[O-])n2)n1	inactive
O=[N+]([O-])c1ccc(OP2(=O)COCCO2)cc1 (stereo not given)	inactive
CC(=O)NC(SC(=S)N(C)C)C(Cl)(Cl)Cl (stereo not given)	inactive
O=[N+]([O-])c1ccc(O)c(/C=N/Nc2ccc([N+](=O)[O-])cc2[N+](=O)[O-])c1	inactive
O=[N+]([O-])c1cc([N+](=O)[O-])c(NCC2CCS(=O)(=O)C2)c([N+](=O)[O-])c1 (stereo not given)	inactive
Cc1cc(-c2cccc3ccccc23)c(C)cn1.O=[N+]([O-])c1cc([N+](=O)[O-])c(O)c([N+](=O)[O-])c1	inactive
O=[As](O)(c1ccccc1)c1ccc(O)cc1	inactive
CCOC(=O)c1ccc(NP(C)(=O)Oc2ccc(F)cc2)cc1 (stereo not given)	inactive
COc1ccc(OP(C)(=O)Nc2ccc(SC(F)(F)F)cc2)cc1 (stereo not given)	inactive
O=C(NC1CCS(=O)(=O)C1)NP(=S)(Oc1ccccc1)Oc1ccccc1 (stereo not given)	inactive
CCNC(=S)/N=C(\N)N[N+](=O)[O-]	inactive
CCOC(=O)NC(Sc1ccccc1)C(Cl)(Cl)Cl (stereo not given)	inactive

Structure (SMILES)	outcome
Cc1ccc(NP(=O)(Oc2cccc(C)c2)Oc2cccc(C)c2)nc1	inactive
c1ccc(-c2nn[nH]n2)c(-c2nn[nH]n2)c1	inactive
CP(=O)(Nc1ccccc1)Oc1ccc(F)cc1 (stereo not given)	inactive
CN(C)C(=O)Oc1noc2ccccc12	inactive
O=[N+]([O-])c1cc([N+](=O)[O-])c(OC2CCCCC2O)c([N+](=O)[O-])c1 (stereo not given)	inactive
CCCCCOc1ccc(NP(C)(=O)Oc2ccc(Cl)cc2Cl)cc1 (stereo not given)	inactive
Cc1ccccc1OP(=O)(Nc1ccccn1)Oc1ccccc1C	inactive
Cc1ccc(OP(=O)(Nc2ccccn2)Oc2ccc(C)cc2)cc1	inactive
CC(=O)NC(SC(=S)N(CC(C)C)CC(C)C)C(Cl)(Cl)Cl (stereo not given)	inactive
COC(=O)c1cc2c(s1)N=C(c1ccccc1)N(C)P2(=O)N1CCOCC1 (stereo not given)	inactive
CCC(=O)N1C2C3N(C(=O)CC)C1C1N(C(=O)CC)C(C(N1C(=O)CC)N3C(=O)CC)N2C(=O)CC	inactive
CCN(CC)CCCOC(=O)C(O)(c1ccccc1)C1CCCCC1 (stereo not given)	inactive
O=C(OC1CN2CCC1CC2)c1ccccc1 (stereo not given)	inactive
CP(=O)(Nc1ccccc1F)Oc1ccccc1 (stereo not given)	inactive
CC(C)c1ccc(OP(C)(=O)Nc2ccc(SC(F)(F)F)cc2)cc1 (stereo not given)	inactive
CC(C)(C)C(=O)NC(Sc1ccccc1)C(Cl)(Cl)Cl (stereo not given)	inactive
CCOc1ccc(C2=NCC(CBr)S2)cc1 (stereo not given)	inactive
O=P1(Nc2nc3ccc(Cl)cc3s2)COc2ccccc2O1 (stereo not given)	inactive
CC(=O)Nc1ccc(Oc2c([N+](=O)[O-])cc([N+](=O)[O-])cc2[N+](=O)[O-])cc1	inactive
COc1ccc2c(c1O)-c1c(O)c(OC)cc3c1[C@H](C2)[N+](C)(C)CC3.O=[N+]([O-])c1cc([N+](=O)[O-])c([O-])c([N+](=O)[O-])c1[O-]	inactive
CC(=O)Nc1ccc([As](=O)(O)O)c(O)c1	inactive
O=C(OC1CN2CCC1CC2)c1ccc([N+](=O)[O-])cc1 (stereo not given)	inactive
CC(=O)c1ccc(N2CC2c2ccncc2)cc1 (stereo not given)	inactive

From PubChem BioAssay AID463165 (Johns Hopkins Ion Channel Center, 2010)
